Patent publication US20250163052A1, “cGAS INHIBITORS AND USES THEREOF” (Cornell University, priority 2022, published 2025)

Assay: Metabolic stability in human liver microsomes

C[C@]12CC[C@H]3[C@@H](CCC4=CC(=O)CC[C@@]43C)[C@@H]1CC[C@@H]2O [Testosterone, reference compound]
CLint(mic): 109.1 µL/min/mg
